Results from US5556942A, “Glutathione S-transferase-activated compounds” (priority 1994, dated 1996).

Details: no GST; compound 300 μM; disappearance by HPLC
Method: The compound to be tested was dissolved in 0.2M phosphate buffer and a solution of GST was added. The final concentration was 0.3 mM test compound and 0.006 mM GST, pH 7.3 for TER 230; for TER 231 GST was 0,003 mM, pH 7.1. The solution was incubated at 37°. Decomposition was followed by HPLC. The column was J. T. Baker C18 250×4.6 mm with 5μ particles. The A buffer was 0.05M ammonium acetate, pH 5.5; 5% CH3 CN; B buffer was 70% CH3 CN in A.
The column was run with a gradient of 20%-50% B over 15 min. then to 100% B in 3 mins; then back to 20% B over 6 mins. A 10 μL sample was injected and the flow rate was 1 ml/min. Aliquots were removed and catalytic decomposition was quenched by addition of acetic acid. Overnight HPLC utilizing an autosampler were used; the rates of decomposition were calculated by measuring the rate of disappearance of the peak versus an internal standard which was 0.06 mM of an inert peptide marker.
In addition, half-lives were determined as described above using 3 μM recombinant human GST P1-1, A1-1 or M1a-1a starting with a concentration of the compound to be tested at 300 μM and monitoring disappearance using HPLC.

Row | Substance | IN VITRO HALF LIVES, CONTROL
1 | γ-glutamyl-α-Amino-β-(1-phenyl, (2'ethyl-N,N,N,N-tetra(2'-chloro)ethylphosphoroamidate)sulfonyl) propionyl glycine [TER 296] | 280 min
2 | γ-glutamyl-α-Amino-β-((2-ethyl-N,N,N,N-tetra(2'-chloro)eth ylphosphoroamidate)sulfonyl)propionylphenylalanine [TER 303] | 335 min
